# US6375928B1, “Neutrophil stimulating peptides” (Peptech Limited, priority 1990, dated 2002)
# Key:
# Assay type in all cases: cell-based
# monocytes = test: Priming of monocytes for a respiratory burst (chemiluminescence); conditions: 10^6 monocytes/tube/ml, 30 min pre-incubation 37° C.
# Description: Peptide 419 (SEQ ID NO. 18) was assayed for its ability to prime monocytes for a respiratory burst. This assay was conducted essentially as described above for neutrophils except that the cells were cultured for 24 hours prior to assay.
# Peptide 419 100 μg/10^6 monocytes—30 mins pre-incubation at 37° C.
# neutrophils [1] = test: Chemotactic properties, neutrophil migration under agarose; conditions: towards agent well; 1 × 10^−7 M fMLP, peptide, or 10^3 U/ml TNFα; 2×10^5 neutrophils
# Description: 3 ml of molten 2% agarose was mixed with 3 ml of 2× concentrated medium 199 containing foetal calf serum (10%) and poured into Petri dishes. Sets of 3 wells of 2.5 mm diameter, each 3 mm apart, were cut in the agarose. 5 μl of neutrophils (2×10^5 cells) were added to the inner well, with chemotactic agent or control medium added to the outer wells. Migration at various time intervals was then measured.
# neutrophils [2] = test: Neutrophil random migration out of wells in agarose
# From the text: Migration of cells is an important property by which cells reach infection sites. Their accumulation at these sites is also dependent on the capacity of inflammatory mediators to inhibit their migration out of the sites.
# [3] = with fMLP, 419 100 μg/10^6 monocytes, 50 U TNF or no pre-treatment
# [4] = without fMLP, 419 100 μg/10^6 monocytes or 50 U TNF
substance,measurement,setting,value
"TNF: Tumour necrosis factor, a product of activated macrophages; comparator","Peak mV Chemiluminescence, Mean ± S.D.",monocytes; [3],133.5 ± 41.719 mV
same,"Peak mV Chemiluminescence, experiment 1",monocytes; [3],104.0 mV
same,"Peak mV Chemiluminescence, experiment 2",monocytes; [3],163.0 mV
same,"Peak mV Chemiluminescence, Mean ± S.D.",monocytes; [4],1.885 ± 0.206 mV
same,"Peak mV Chemiluminescence, experiment 1",monocytes; [4],2.03 mV
same,"Peak mV Chemiluminescence, experiment 2",monocytes; [4],1.74 mV
same,"Migration distance at 1.5 h, Agent",neutrophils [1],0.48 mm
same,"Migration distance at 2.5 h, Agent",neutrophils [1],0.69 mm
same,effect on neutrophil random migration (in words),neutrophils [2],only partially migration inhibitory
